{
  "source": "patent US9701959B2",
  "about": "“High throughput screen for biologically active polypeptides” (Invenra Inc., priority 2012, dated 2017)",
  "system": "E. coli MG1655",
  "test": "Minimal Inhibitory Concentration (MIC) in E. coli, Alamar Blue, hit validation",
  "format": "cell-based",
  "conditions": "MIC at 18 hrs in E. coli; overnight at 35° C., triplicate",
  "protocol": "Equipment: • Absorption and fluorescence plate reader—Tecan Safire • CO2 Incubator\nReagents: • Six chemically synthesized peptides—Biosynthesis Inc. • E. coli MG1655 (ATCC) • LB media (Sigma-Aldrich) • Alamar Blue assay kit (Life Tech)\n3) Start an overnight culture of E. coli MG1655 in 5 mL of LB and grow at 37° C. with shaking at 200 rpm. 4) In the morning dilute overnight culture to OD600=0.00075 in 10 mL LB+1 mL Alamar Blue Stain. 5) Make seven (7), 1:2 serial dilutions of each peptide starting at […] in a final volume of 70 μL of PBS. 6) Add 20 μL of serial dilution of peptides in triplicate to a white small volume 96-well plate. Add 20 μl of PBS alone to the 8th well. 7) Add 120 μL of E. coli/Alamar blue dilution to each of the test wells. 8) Incubate overnight (18 hrs) at 35° C.",
  "data": [
    {"compound": "CC[C@H](C)[C@H](NC(=O)CN)C(=O)NCC(=O)N[C@@H](C)C(=O)N[C@H](C(=O)N[C@@H](CC(C)C)C(=O)N[C@@H](CCCCN)C(=O)N[C@H](C(=O)N[C@@H](CC(C)C)C(=O)N[C@H](C(=O)N[C@H](C(=O)NCC(=O)N[C@@H](CC(C)C)C(=O)N1CCC[C@H]1C(=O)N[C@@H](C)C(=O)N[C@@H](CC(C)C)C(=O)N[C@H](C(=O)N[C@@H](CO)C(=O)N[C@@H](Cc1c[nH]c2ccccc12)C(=O)N[C@H](C(=O)N[C@@H](CCCCN)C(=O)N[C@@H](CCCNC(=N)N)C(=O)N[C@@H](CCCCN)C(=O)N[C@@H](CCCNC(=N)N)C(=O)N[C@@H](CCC(N)=O)C(=O)N[C@@H](CCC(N)=O)C(N)=O)[C@@H](C)CC)[C@@H](C)CC)[C@@H](C)O)[C@@H](C)O)C(C)C)C(C)C", "note": "[Melittin]", "values": [
      {"measurement": "Ave MIC", "result": 13, "unit": "µM"}
    ]}
  ]
}
